Results on 1 substance are retold here after patent US20190062383A1, “Kv1.3 Antagonists and Methods of Use” (published 2019).

The experiment concerns the target human Kv1.3 (human) (UniProt P22001). The experiment in a line: cell-based or functional assay.

With “Negative control IgG4 Fc (from UniProt P01861 99-327)”, the % T cell inhibition (IL-2) at 5 nM came to 0%.
